From patent US7728037B2, “Alpha-ketoglutarates of active ingredients and compositions containing same” (Sigma-Tau Industrie Farmaceutiche Riunite S.p.A., priority 2001, dated 2010)

Assay: Absorption tests: L-carnitine assay on blood samples after oral administration
From the text: For these tests a batch of male Sprague Dawley rats with a mean body weight of 250 g was used.

[1] = rats fasted 24 h, oral 1 g/kg L-carnitine alpha-ketoglutarate or equimolar dose, blood sampled at 1, 2 and 4 hours

Substance: L-carnitine alpha-ketoglutarate
- absorption (in words) (oral, rats): well absorbed
- peak L-carnitine blood concentration [1]: 166.5 ± 20.1 nmol/L
- time at which L-carnitine concentrations reached their peak [1]: 1 h
